Experiments:
MDCK cells = experiment: MDCK cell permeability test; settings: MDCK cells
P-gp = experiment: MDCK cell permeability test; settings: dog, MDCK
[1] = MDCK cell permeability test; settings: dog, MDCK, 90 min; for Papp A→B at 90 min: Apparent permeability coefficient A→B; for Papp B→A at 90 min: Apparent permeability coefficient B→A
[2] = 1st line of the compound (condition not given)
[3] = 2nd line of the compound (condition not given)

CC(C)CN(C[C@@H](O)[C@H](Cc1ccccc1)NC(=O)O[C@H]1CCOC1)S(=O)(=O)c1ccc(N)cc1 [Amprenavir, amprenavir, reference compound]
Permeability Judgment (MDCK cells): High | efflux ratio at 90 min (P-gp): 13.9 | Papp A→B at 90 min [1, 2]: 5.42 ×10⁻⁶ cm/s | Papp A→B at 90 min [1, 3]: 33.4 ×10⁻⁶ cm/s | Papp B→A at 90 min [1, 2]: 75.5 ×10⁻⁶ cm/s | Papp B→A at 90 min [1, 3]: 22.6 ×10⁻⁶ cm/s
